Laboratory results: US20260085130A1

Assays:
[1] = biological target: human Factor XIIa (FXIIa) (human) (UniProt P00748); test: cell-based or functional assay
[2] = biological target: human Factor XIIa (FXIIa) (human) (UniProt P00748); test: inhibition of human FXIIa activity (FIG. 21)
[3] = biological target: human Factor XIIa (FXIIa) (human) (UniProt P00748); test: purified component inhibition assay (Ki^app, Morrison fit)

Plasma Ki^app [1] [nM]	inhibitory activity [2] [pM]	Ki [3] [nM]	Substance
101	4.7	0.006	M0192-H11 (antibody)
435		0.004	M0184-D01 (antibody)
359			M0182-H01 (antibody)
115		0.014	M0292-D07 (antibody)
514		0.013	M0192-A03 (antibody)
275		0.018	M0308-H03 (antibody)
304		0.009	M0192-F06 (antibody)
174		0.008	M0192-F01 (antibody)
458		0.017	M0177-A06 (antibody)
198		0.017	M0192-A01 (antibody)
76		0.005	M0183-H08 (antibody)
176		0.013	M0191-A03 (antibody)
217		0.018	M0177-C12 (antibody)
31		0.005	M0191-E09 (antibody)
1000		0.011	M0183-B12 (antibody)

Further lines, the substance ahead of its results:

Substance	Plasma Ki^app [1] [nM]	inhibitory activity [2] [pM]	Ki [3] [nM]
M0310-G08 (antibody)	796		0.024
M0184-F12 (antibody)	38		0.004
M0192-G05 (antibody)	852		0.015
M0191-E04 (antibody)	460		0.007
M0178-A08 (antibody)	381		0.007
M0310-F02 (antibody)	319		0.106
M0310-B09 (antibody)	331		0.012
M0310-A04 (antibody)	316		0.015
M0184-B04 (antibody)	269		0.008
M0183-C03 (antibody)	33		0.006
M0310-G06 (antibody)	353		0.007
M0192-G03 (antibody)	125		0.018
M0191-H09 (antibody)	463		0.016
M0192-D02 (antibody)	279		0.005
M0310-C06 (antibody)	135		0.057
M0192-F07 (antibody)	125		0.007
M0183-D08 (antibody)	118		0.011
M0308-F04 (antibody)	1570		0.017
M0310-G07 (antibody)	295		0.022
M0192-H04 (antibody)	485		0.009
M0191-H10 (antibody)	216		0.013
M0182-D04 (antibody)	96		0.011
